Source: US8759532B2, “Pyridine and pyrimidine derivatives as phosphodiesterase 10 inhibitors” (AMGEN Inc., priority 2008, dated 2014)
Where two headings read alike, the source gives them in different places.

Amino acid sequences for entries named in this document (tags omitted).
UniProt Q8CA95, whole entry: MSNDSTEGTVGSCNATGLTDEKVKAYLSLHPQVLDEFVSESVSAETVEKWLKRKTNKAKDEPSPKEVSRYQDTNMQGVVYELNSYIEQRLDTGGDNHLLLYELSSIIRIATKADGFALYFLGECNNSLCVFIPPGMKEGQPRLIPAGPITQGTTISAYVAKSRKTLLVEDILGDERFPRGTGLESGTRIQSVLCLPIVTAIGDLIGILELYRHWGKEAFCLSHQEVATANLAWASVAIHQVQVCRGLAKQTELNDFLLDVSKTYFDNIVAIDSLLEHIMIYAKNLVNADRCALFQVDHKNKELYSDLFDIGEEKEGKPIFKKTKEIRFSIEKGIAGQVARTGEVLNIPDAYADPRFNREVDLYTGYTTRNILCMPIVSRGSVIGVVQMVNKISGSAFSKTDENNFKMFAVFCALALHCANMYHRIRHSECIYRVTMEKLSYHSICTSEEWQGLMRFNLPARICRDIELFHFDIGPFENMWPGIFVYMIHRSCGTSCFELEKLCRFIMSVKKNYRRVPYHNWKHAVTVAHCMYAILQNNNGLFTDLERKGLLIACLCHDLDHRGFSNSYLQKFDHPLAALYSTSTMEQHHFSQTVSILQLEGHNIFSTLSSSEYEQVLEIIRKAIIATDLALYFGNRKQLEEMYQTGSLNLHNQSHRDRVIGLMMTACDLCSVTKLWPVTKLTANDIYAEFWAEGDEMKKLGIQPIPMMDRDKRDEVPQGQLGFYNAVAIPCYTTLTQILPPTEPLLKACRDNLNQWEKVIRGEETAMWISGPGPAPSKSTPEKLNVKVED

Biological target: PDE10 (Mus musculus, UniProt Q8CA95)
Assay: PDE10 enzyme inhibition, IMAP TR-FRET assay
Format: biochemical

## CC(C)(CNC(=O)c1cccnc1Oc1ccc(C(=O)c2nc3ccccc3[nH]2)cc1)c1ccccn1
  IC50: < 0.025 µM

## O=C(c1ccc(Oc2ncccc2C(=O)NCCc2ccccn2)cc1)c1nc2ccccc2[nH]1
IC50 class against PDE10, Table IVA
  IC50: < 0.025 µM
